Measurements: patent US20090181953A1, “COMPOUND FORMS AND USES THEREOF” (WYETH, priority 2008, published 2009)

Assay: hygroscopicity, Dynamic Vapor Sorption (DVS)
Assay type: physicochemical
Experimental: Salt forms of a compound of formula 1 were investigated with X-ray powder diffraction, DSC, TGA and microscopy. FIG. 1 illustrates X-ray patterns observed for various salt forms. FIGS. 2 and 3 present results of thermal studies performed on such salt forms. FIGS. 4 and 5 present DVS data of sulfuric and phosphoric salts. […] FIGS. 6-12 show characterization data for hydrochloride salt forms.
Dynamic Vapor Sorption (DVS) was done at 25-26° C.

Hygroscopicity (in words): non-hygroscopic | water held at 50% RH: holds about 2% | water held at 50% RH (listed as phosphate salt form): about 2% | water held at 50% RH (listed as phosphoric salt form): about 2% | RH at which moisture pick-up starts (relative humidity): Starts at 10% and
Substance: Phosphoric acid
